Patent US20240190994A1, “FUSION PROTEIN BETWEEN ANTIGEN-BINDING MOLECULE AND STREPTAVIDIN VARIANT” (The University of Tokyo, priority 2021, published 2024)

Assays:
[1] = system: KPL-4 xenograft tumor site, skin and major organs; test: pathological analysis (H & E histology) of xenograft mouse models; format: in vivo, BALB/cSlc-nu/nu nude mice; conditions: 97th day
Source text: Skin samples from xenograft tumor sites, and samples from other important organs including lung, heart, kidney, liver and gastrointestinal tract, were obtained from the mice. […] Stained slides were dehydrated again by being immersed in ethanol and then being immersed in xylene. […] The H & E-stained slides were histologically examined using the OLYMPUS cellSens Standard system (OLYMPUS, Tokyo, Japan).

[2] = body weight of xenograft mouse models as indicator of treatment-related toxicity; format: in vivo, BALB/cSlc-nu/nu nude mice; conditions: all individual mice; FIG. 15A
Protocol: The KPL-4 cell line was maintained in DMEM (low glucose) (FUJIFILM Wako Pure Chemical Corporation, Osaka, Japan) supplemented with 10% FBS, 100 U/mL penicillin, and 100 μg/mL streptomycin (#15140122, Thermo Fisher Scientific, Waltham, MA, USA) (Kurebayashi J, Otsuki T, Tang CK, et al. Isolation and characterization of a new human breast cancer cell line, KPL-4, expressing the Erb B family receptors and interleukin-6. Br J Cancer. 1999; 79: 707-717. doi:10.1038/sj.bjc.6690114). The KPL-4 cells (7,500,000) were subcutaneously transplanted into the thigh of BALB/cSlc-nu/nu nude mice (Sankyo Lab Service, Inc., Tokyo, Japan). Proliferation of the subcutaneous tumor was monitored by measuring a tumor volume (0.5×length×width^2) using Vernier calipers, and the body weight of the animals was then monitored as an indicator of treatment-related toxicity. The tumor size of 20 mice increased at 44 days after the transplantation, and reached approximately 400 mm^3. These 20 mice were randomly classified into two groups each consisting of 10 mice, namely, a Kadcyla (registered trademark) group and a ZHER2:342-Cupid-His-Ax-SiPC group.

Substance: trastuzumab emtansine [Kadcyla]
- mice with subcutaneous cysts surrounded by granuloma tissues [1]: one
- granulomatous reaction in the subcutaneous region (frequency) ([1]; p<0.001, chi-square test): 60%
- granulomatous reaction in the subcutaneous region (mice affected/mice) ([1]; p<0.001, chi-square test): 6/10
- changes over time in body weight [2]: moderate tendency of increasing the body weight
